This assay addresses T1, TLR7 (Homo sapiens, UniProt Q9NYK1).
T1 construct: expressed in transfected cells; host or cells: HEK293 (HEK-Blue-7 cells)
T1 sequence (Q9NYK1 27-1049): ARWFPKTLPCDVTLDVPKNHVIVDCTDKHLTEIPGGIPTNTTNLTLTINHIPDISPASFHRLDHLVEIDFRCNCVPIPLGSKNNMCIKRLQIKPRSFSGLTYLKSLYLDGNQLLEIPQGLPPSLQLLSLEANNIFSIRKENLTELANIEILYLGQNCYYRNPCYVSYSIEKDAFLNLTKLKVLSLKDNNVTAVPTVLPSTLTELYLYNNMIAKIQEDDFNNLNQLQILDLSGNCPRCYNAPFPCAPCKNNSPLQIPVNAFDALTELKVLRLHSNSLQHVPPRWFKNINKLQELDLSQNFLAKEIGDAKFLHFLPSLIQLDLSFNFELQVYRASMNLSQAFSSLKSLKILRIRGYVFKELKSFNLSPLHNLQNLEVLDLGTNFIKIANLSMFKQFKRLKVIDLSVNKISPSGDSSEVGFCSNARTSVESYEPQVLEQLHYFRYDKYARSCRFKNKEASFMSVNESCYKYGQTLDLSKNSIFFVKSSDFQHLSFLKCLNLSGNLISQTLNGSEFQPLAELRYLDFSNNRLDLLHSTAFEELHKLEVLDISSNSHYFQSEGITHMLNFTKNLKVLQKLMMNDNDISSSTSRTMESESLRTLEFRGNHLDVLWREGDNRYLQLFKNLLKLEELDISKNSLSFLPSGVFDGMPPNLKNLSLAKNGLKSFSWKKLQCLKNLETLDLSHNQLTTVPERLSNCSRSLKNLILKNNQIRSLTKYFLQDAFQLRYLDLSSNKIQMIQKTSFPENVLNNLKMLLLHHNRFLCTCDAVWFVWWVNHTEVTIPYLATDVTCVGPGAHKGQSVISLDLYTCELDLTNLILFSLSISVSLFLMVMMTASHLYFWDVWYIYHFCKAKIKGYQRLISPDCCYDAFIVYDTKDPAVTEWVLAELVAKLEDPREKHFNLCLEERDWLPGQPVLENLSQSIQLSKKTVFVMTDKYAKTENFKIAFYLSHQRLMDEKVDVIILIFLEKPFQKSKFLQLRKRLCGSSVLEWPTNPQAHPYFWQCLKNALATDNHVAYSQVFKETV
The experiment in a line: TLR7 reporter gene assay (NF-κB induction, HEK-Blue-7 cells), agonism. The class given is cell-based. As to conditions: read-out: EC50 (agonistic activity). An excerpt: NF-κB induction: The induction of NF-κB was quantified using HEK-Blue-7 cells and HEK-Blue-8 cells as previously described by us.^8,24 HEK293 cells were stably transfected with human TLR7 (or human TLR8), MD2, and secreted alkaline phosphatase (sAP), and were maintained in HEK-Blue™ Selection medium containing zeocin and normocin. Stable expression of secreted alkaline phosphatase (sAP) under control of NF-κB/AP-1 promoters is inducible by the TLR7 (or TLR8) agonists, and extracellular sAP in the supernatant is proportional to NF-κB induction. HEK-Blue cells were incubated at a density of […] in a volume of 80 μL/well, in 384-well, flat-bottomed, cell culture-treated microtiter plates until confluency was achieved, and subsequently graded concentrations of stimuli. sAP was assayed spectrophotometrically using an alkaline phosphatase-specific chromogen (present in HEK-detection medium as supplied by the vendor) at 620 nm.
The induction of NF-κB was quantified using HEK-Blue-3, HEK-Blue-7 and HEK-Blue-8 cells as previously described by us.^8,24,51 HEK293 cells were stably transfected with human TLR3 (or human TLR7 or human TLR8), MD2, and secreted alkaline phosphatase (sAP), and were maintained in HEK-Blue™ Selection medium containing zeocin and normocin. […]

For the compound `CCCCc1nc2c(N)nc3ccccc3c2n1Cc1cccc(CN)c1` [Compound 7c, 1-(3-(Aminomethyl)benzyl)-2-butyl-1H-imidazo[4,5-c]quinolin-4-amine], the EC50 stood at 110 nM.

Values taken from patent US10208037B2, “Toll-like receptor-7 and -8 modulatory 1H imidazoquinoline derived compounds” (The University of Kansas, priority 2011, dated 2019).
